Measurements: patent US7015329B2 (Janssen Pharmaceutica N. V., priority 2003, dated 2006)

Protein sequences, listed by entry. Tags and fused reporters are not part of them. Residues count along the entry.
UniProt P37231, 238-503 limits assumed, species assumed: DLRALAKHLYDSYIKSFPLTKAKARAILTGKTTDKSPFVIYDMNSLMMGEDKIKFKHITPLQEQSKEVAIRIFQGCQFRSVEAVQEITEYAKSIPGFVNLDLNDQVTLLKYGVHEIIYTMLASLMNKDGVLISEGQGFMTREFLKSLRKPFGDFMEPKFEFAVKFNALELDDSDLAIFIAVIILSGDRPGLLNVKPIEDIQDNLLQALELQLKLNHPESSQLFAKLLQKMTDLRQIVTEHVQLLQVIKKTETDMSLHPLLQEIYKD

Key:
[1] = target: T1, PPAR delta (Homo sapiens, UniProt Q03181); experiment: Transfection assay for PPAR receptors (GAL4-LBD luciferase reporter), PPAR delta; format: cell-based; details: Table 2, compounds of interest, HEK293 cells, 18–24 hrs
T1 construct: expressed in transfected cells; host or cells: HEK293
T1 sequence (Q03181 211-439 limits assumed): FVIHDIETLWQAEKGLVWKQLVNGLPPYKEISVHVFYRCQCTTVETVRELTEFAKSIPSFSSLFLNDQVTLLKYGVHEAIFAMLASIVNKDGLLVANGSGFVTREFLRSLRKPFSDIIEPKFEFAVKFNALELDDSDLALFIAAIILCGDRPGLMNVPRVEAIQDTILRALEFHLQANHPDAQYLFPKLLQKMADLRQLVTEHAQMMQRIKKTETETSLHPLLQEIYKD

[2] = target: T2, PPAR gamma (Homo sapiens, UniProt P37231); experiment: Transfection assay for PPAR receptors (GAL4-LBD luciferase reporter), PPAR gamma; format: cell-based; details: Table 2, compounds of interest, HEK293 cells, 18–24 hrs
T2 construct: expressed in transfected cells; host or cells: HEK293

## {2-Methyl-4-[5-(4-trifluoromethyl-phenyl)-pyridin-3-ylmethylsulfanyl]-phenoxy}-acetic acid [Compound e]
[1]
  EC50: 37 nM
[2]
  EC50: > 3000 nM
